# In publication PMC10023787, “Trio-pharmacophore DNA-encoded chemical library for simultaneous selection of fragments and linkers” (Nature Communications, 2023):
# The chains behind the UniProt entries cited, without tags or fusion partners. Residues count along the entry.
# UniProt P08253, 110-660 limits assumed: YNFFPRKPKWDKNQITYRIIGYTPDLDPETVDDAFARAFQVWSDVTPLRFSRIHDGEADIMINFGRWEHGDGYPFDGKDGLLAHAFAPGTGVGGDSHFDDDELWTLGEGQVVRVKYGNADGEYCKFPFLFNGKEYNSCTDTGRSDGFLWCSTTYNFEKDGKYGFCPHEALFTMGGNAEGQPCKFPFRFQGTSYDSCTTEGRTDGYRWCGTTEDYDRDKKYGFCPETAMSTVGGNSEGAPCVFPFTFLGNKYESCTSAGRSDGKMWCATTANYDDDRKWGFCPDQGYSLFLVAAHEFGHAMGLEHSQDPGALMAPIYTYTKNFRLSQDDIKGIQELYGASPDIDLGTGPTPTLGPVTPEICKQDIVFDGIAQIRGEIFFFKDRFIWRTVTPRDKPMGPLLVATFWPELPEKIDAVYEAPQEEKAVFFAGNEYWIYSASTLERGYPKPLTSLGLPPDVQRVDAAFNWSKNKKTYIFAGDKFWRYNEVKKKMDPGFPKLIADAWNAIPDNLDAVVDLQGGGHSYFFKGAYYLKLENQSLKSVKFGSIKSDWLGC
# UniProt P14780, 107-707 limits assumed: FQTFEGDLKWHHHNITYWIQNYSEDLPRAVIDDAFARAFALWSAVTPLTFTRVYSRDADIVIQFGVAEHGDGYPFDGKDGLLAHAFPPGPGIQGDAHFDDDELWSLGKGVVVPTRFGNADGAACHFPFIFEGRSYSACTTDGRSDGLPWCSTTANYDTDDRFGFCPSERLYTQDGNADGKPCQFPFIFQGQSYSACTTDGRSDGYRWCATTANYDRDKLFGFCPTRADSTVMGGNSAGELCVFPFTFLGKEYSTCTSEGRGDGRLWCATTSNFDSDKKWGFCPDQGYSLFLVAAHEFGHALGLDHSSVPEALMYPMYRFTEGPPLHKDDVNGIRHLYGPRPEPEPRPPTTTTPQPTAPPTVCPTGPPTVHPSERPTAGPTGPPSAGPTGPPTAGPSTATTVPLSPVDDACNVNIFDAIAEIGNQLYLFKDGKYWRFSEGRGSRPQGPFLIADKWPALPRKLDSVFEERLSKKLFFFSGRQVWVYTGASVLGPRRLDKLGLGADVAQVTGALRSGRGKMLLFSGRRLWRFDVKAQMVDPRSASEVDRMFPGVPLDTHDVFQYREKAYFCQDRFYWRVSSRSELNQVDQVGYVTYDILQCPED
# What was measured:
# [1] = target: human MMP-2 (Homo sapiens, UniProt P08253); experiment: MMP-2 inhibition assay (fluorogenic peptide substrate)
# [2] = target: MMP-9 (Homo sapiens, UniProt P14780); experiment: MMP-9 inhibition assay (fluorogenic peptide substrate); set-up: scale not given here
smiles,measurement,setting,value
O=C(NCC12CC3CC(CC(C3)C1)C2)c1cncc(O)c1,"Mean (dose-response, Supplementary fig 17)",[1]; concentration 0.0156 µM,102.46
same,"Mean (dose-response, Supplementary fig 17)",[1]; concentration 0.08 µM,101.59
same,"Mean (dose-response, Supplementary fig 17)",[1]; concentration 0.39 µM,96.57
same,"Mean (dose-response, Supplementary fig 17)",[1]; concentration 1.95 µM,90.47
same,"Mean (dose-response, Supplementary fig 17)",[1]; concentration 9.75 µM,82.03
same,"Mean (dose-response, Supplementary fig 17)",[1]; concentration 48.76 µM,87.12
same,"Mean (dose-response, Supplementary fig 17)",[1]; concentration 243.80 µM,87.61
same,"Mean (dose-response, Supplementary fig 17)",[1]; concentration 1219.00 µM,69.40
same,"Mean (dose-response, Supplementary fig 17)",[2]; concentration 0.08 µM,94.12
same,"Mean (dose-response, Supplementary fig 17)",[2]; concentration 0.39 µM,98.08
same,"Mean (dose-response, Supplementary fig 17)",[2]; concentration 1.95 µM,87.17
same,"Mean (dose-response, Supplementary fig 17)",[2]; concentration 9.75 µM,92.28
same,"Mean (dose-response, Supplementary fig 17)",[2]; concentration 48.76 µM,93.77
same,"Mean (dose-response, Supplementary fig 17)",[2]; concentration 243.80 µM,96.99
same,"Mean (dose-response, Supplementary fig 17)",[2]; concentration 1219.00 µM,71.64
